ChEMBL document CHEMBL4340514, “(2S)-N-2-methoxy-2-phenylethyl-6,7-benzomorphan compound (2S-LP2): Discovery of a biased mu/delta opioid receptor agonist” (Eur J Med Chem, 2019)

Chains of the proteins cited; added tags and fusions are not shown.
UniProt P35372, whole entry: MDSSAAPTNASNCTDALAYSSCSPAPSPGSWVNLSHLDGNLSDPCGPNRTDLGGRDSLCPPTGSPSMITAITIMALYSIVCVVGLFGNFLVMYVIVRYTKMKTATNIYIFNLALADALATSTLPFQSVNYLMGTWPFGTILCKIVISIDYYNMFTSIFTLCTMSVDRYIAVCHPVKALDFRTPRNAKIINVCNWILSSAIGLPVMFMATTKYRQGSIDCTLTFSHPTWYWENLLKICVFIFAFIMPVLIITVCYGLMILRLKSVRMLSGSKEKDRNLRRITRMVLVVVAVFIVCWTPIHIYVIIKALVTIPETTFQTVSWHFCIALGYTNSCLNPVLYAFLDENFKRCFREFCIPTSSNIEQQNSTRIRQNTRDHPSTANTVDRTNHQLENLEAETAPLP

Columns and labels:
[1] = target: T1, Mu-type opioid receptor (Homo sapiens, UniProt P35372)
[2] = target: T1, Mu-type opioid receptor; remark: listed apart in the source

In the case of `CC(C)C[C@@H](NC(=O)[C@H](Cc1ccccc1)NC(=O)CNC(=O)[C@@H](C)NC(=O)[C@@H](N)Cc1ccc(O)cc1)C(=O)O` [DADLE], the EC50 [1] is reported as 129 nM and the EC50 [2] is reported as 1380 nM.
